{"source": "patent US20100093014A1", "about": "“SCREENING FOR BONE ANABOLIC FACTORS” (NORDIC BIOSCIENCE IMAGING A/S, priority 2007, published 2010)", "molecules": {"B1": {"name": "Bone Morphogenetic Protein 2 (protein, UniProt P12643 283-396, looked up)", "Bone morphogenetic protein 2": "QAKHKQRKRLKSSCKRHPLYVDFSDVGWNDWIVAPPGYHAFYCHGECPFPLADHLNSTNHAIVQTLVNSVNSKIPKACCVPTELSAISMLYLDENEKVVLKNYQDMVVEGCGCR", "notes": "positive control, known to induce bone formation"}}, "key": {"MC-3T3-E1 cells [1]": {"test_system": "MC-3T3-E1 cells", "experiment": "Bone nodule formation by MC-3T3-E1 cells, Alizarin Red", "assay_type": "cell-based, murine", "settings": "three weeks culture, BMP-2 at 10 ng/mL, CM in the indicated concentrations", "protocol": "(§1) The pre-osteoblast murine MC-3T3-E1 cells were cultured in αMEM containing 10% of heat-inactivated FBS with a change of medium every 2nd or 3rd day and then lifted by trypsin treatment when they reached confluence, followed by reseeding of a suitable ratio of the cells (1:3-1:5). To induce bone nodule formation the MC3T3-E1 cells were lifted by trypsin and reseeded in 24-well plates at a density of 75,000 cells/24-well, and then cultured in the presence of 50 μg/mL ascorbic acid and 10 mM β-glycerol-phosphate, for three weeks, with a medium change every 2nd or 3rd day.\nNodule formation was measured using Alizarin Red. After three weeks of culture the osteoblasts cultures were stopped by fixation in 3.7% formaldehyde in PBS for 20 minutes. The cells were stained in 40 mM Alizarin Red pH 4.2 for 10 minutes, and washed thoroughly. Digital histographs of representative areas of stained nodules were taken using an Olympus IX-70 light microscope equipped with an Olympus C5050 Zoom digital camera. Subsequently, the dye was extracted from the cells by incubation in 10% cetylpyridinium chloride for 15 minutes while shaking in the dark, and finally the absorbance at 561 nm was measured using an ELISA reader."}, "MC-3T3-E1 cells [2]": {"test_system": "MC-3T3-E1 cells", "experiment": "Bone nodule formation by MC-3T3-E1 cells, Von Kossa staining", "assay_type": "cell-based, murine", "settings": "three weeks culture, BMP-2 at 10 ng/mL", "protocol": "as §1\nNodule formation was also measured by Von Kossa staining of the bone nodules. After stopping of the culture as above, the bone nodules were stained in 2.5% AgNO3 for 30 minutes under intense illumination. The cells were washed thoroughly in milliQ and the staining was further developed by incubation in 1% pyrogallol for 30 seconds. After washing in milliQ, the staining was fixed in 5% sodium thiosulphate for 5 minutes and washed again in milliQ. Finally, digital histographs of representative areas of stained nodules were taken using an Olympus IX-70 light microscope equipped with an Olympus C5050 Zoom digital camera."}}, "data": [{"molecule": "B1", "values": [{"measurement": "bone nodule formation measured using Alizarin Red", "setting": "MC-3T3-E1 cells [1]", "result": "significantly induced bone nodule formation"}, {"measurement": "bone nodule formation, Von Kossa staining (qualitative)", "setting": "MC-3T3-E1 cells [2]", "result": "significantly induced bone nodule formation"}]}]}
